SMILES strings stand for the structures. Only a part is listed here, and it is no random draw. Activity calls are given as the source filed them.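 How the source made its calls: active means CYP2C19 inhibition above a set limit at 5 µM in the primary screen (cut at about 50% in these data); inactive means the rest.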

Sequences of proteins named here, by UniProt entry; tags and fusion partners are left off.
UniProt P33261, whole entry: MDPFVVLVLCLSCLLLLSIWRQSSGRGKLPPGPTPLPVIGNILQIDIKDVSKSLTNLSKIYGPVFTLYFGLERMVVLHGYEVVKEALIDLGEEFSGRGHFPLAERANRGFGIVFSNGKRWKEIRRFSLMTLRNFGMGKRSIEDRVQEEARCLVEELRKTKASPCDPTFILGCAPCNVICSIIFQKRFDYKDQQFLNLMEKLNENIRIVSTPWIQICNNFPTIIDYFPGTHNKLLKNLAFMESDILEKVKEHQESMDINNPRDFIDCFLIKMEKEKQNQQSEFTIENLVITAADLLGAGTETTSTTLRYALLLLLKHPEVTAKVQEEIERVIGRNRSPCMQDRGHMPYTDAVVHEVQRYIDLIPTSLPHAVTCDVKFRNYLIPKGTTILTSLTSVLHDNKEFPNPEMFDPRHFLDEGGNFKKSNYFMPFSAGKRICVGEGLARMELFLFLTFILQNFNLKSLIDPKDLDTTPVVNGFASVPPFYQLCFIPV

This test deals with Cytochrome P450 2C19 (Homo sapiens) (UniProt P33261). The test can be described thus: blockers of cytochrome P450 2C19 activity – biochemical, luminescence, ADME assay, primary screen (AID 778).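 Further: plate controls were negative control wells for no effect and 2.5 mM tranylcypromine positive control for full effect.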 Particulars: CYP2C19 Supersomes, luciferin-H EGE luminescence, 30 min; at 5 µM; stronger effect = higher value.
On to `Cc1ccc(NP(C)(=O)Oc2ccccc2)c(C)c1` (stereo not given), for which the inhibition – broadly, the relative decrease from the control value, in per cent – is active: 64.3%.

Take `COc1ccccc1OP(C)(=O)Nc1ccc(C)cc1` (stereo not given): the inhibition is active: 82.2%.

Consider `COc1ccc(OP(C)(=O)Nc2cccc(F)c2)cc1` (stereo not given), for which the inhibition was active: 95.2%.

Turning to `CP(=S)(Nn1cnnc1)Oc1ccccc1` (stereo not given), the inhibition is inactive: 12.1%.

For `CP(=O)(NC(=O)Nc1ccccc1)Oc1ccccc1` (stereo not given), the inhibition is inactive: -10.4%.

Take `CCOP(C)(=S)SCC(=O)NC(C)C(=O)O` (stereo not given): the inhibition is inactive: 24.6%.

In the case of `CP(=O)(Nc1ccccn1)Oc1ccc(Cl)cc1` (stereo not given), the inhibition is inactive: 44.4%.

For the molecule `Cc1nc2ccc3ccccc3c2s1.O=[N+]([O-])c1cc([N+](=O)[O-])c(O)c([N+](=O)[O-])c1`, the inhibition was inactive: 7.8%.

Regarding `Cc1cc(C)cc(OP(C)(=O)Nc2ccc(C)cc2C)c1` (stereo not given), the inhibition was active: 88.3%.

As for `Cc1cc(C)cc(OP(C)(=O)Nc2ccccn2)c1` (stereo not given), the inhibition was active: 50.1%.

Take `Cc1ccc(C)c(NP(C)(=O)Oc2ccccc2)c1` (stereo not given): the inhibition is inactive: 23.8%.

In the case of `CP(=O)(Nc1ccccc1F)Oc1ccccc1` (stereo not given), the inhibition is inactive: 24.5%.

`CP(=O)(Nc1ccccc1)Oc1ccc(F)cc1` (stereo not given): the inhibition was inactive: 21.5%.

As for `COc1ccc(OP(C)(=O)Nc2cccc(Br)c2)cc1` (stereo not given), the inhibition was active: 73.5%.

`CN(C)CCOC(=O)C(O)(c1ccccc1)C1CCCCC1` (stereo not given): the inhibition was active: 50.3%.

Take `CCOP(C)(=S)SCC(=O)NC(C)(CC)C(=O)O` (stereo not given): the inhibition was inactive: -8.7%.

`Cc1ccccc1NP(C)(=O)Nc1ccccc1C`: the inhibition was active: 83.6%.

Turning to `CCN(CC)CC(O)COC(=O)C(O)(c1ccccc1)C1CCCCC1` (stereo not given), the inhibition is inactive: 2.1%.

Consider `CP(=O)(Oc1ccccc1)N1CCOC1=O` (stereo not given), for which the inhibition was inactive: 4.2%.

On to `COc1ccccc1OP(C)(=O)Nc1c(C)n(C)n(-c2ccccc2)c1=O` (stereo not given), for which the inhibition is inactive: 2.8%.

As to `CC(C)(C)c1ccc(OP(C)(=O)O)cc1`, the inhibition is inactive: -9%.

Consider `CP(=O)(OC12CC3CC(CC(C3)C1)C2)OC12CC3CC(CC(C3)C1)C2`, for which the inhibition is inactive: -20.2%.

As to `COc1ccccc1OP(C)(=O)Nc1ccc(C)c(C)c1` (stereo not given), the inhibition was active: 88.8%.

`Cc1nc2ccc3ccccc3c2o1.O=[N+]([O-])c1cc([N+](=O)[O-])c(O)c([N+](=O)[O-])c1`: the inhibition is inactive: -10.2%.

As for `CN(C)CCOC(=O)C(O)(c1ccccc1)C1CCCC1` (stereo not given), the inhibition is inactive: 12.2%.

Consider `COc1ccc(OP(C)(=O)Nc2ccccn2)cc1` (stereo not given), for which the inhibition is inactive: 45.5%.

As to `Cc1c(NP(C)(=O)Oc2ccc(C(C)C)cc2)c(=O)n(-c2ccccc2)n1C` (stereo not given), the inhibition is inactive: 8.6%.

In the case of `CCc1ccc(OP(C)(=O)O)cc1`, the inhibition is inactive: 3.1%.

As for `COc1ccccc1OP(C)(=O)Nc1ccc(C)cc1C` (stereo not given), the inhibition is inactive: 30.3%.

Turning to `CP(=O)(Nc1ccccn1)Oc1ccccc1` (stereo not given), the inhibition is inactive: 6.4%.

(Values after PubChem BioAssay AID778 (Sanford-Burnham Center for Chemical Genomics, 2007).)
